# Screening data deposited in PubChem by ICCB-Longwood Screening Facility, Harvard Medical School.
# Shown are actives, neighbours in structure and some others; about 0.43% of the full set was active somewhere.
# HCMV NEC inh: inhibitors of HCMV UL50-UL53 interaction, biochemical, HTRF; HCMV UL50-UL53 nuclear egress complex (human cytomegalovirus); actives 0.15% (n = 190,000); inhibition, % (no concentration beside the values); normalized percent inhibition; in the data active = inhibition above about 27%, passing the limit was not always enough
# GIV Gai3 FP: inhibitors of GIV GBA-motif binding to rat Galpha-i3. 210,000 tested, 0.42% active. percent of control (FP), % (concentration not given with the values). AID 1224905. Galpha-i3/FITC-GIV peptide fluorescence polarization, 90 min; active compounds read low; scaled: aluminum fluoride 0%, vehicle 100%;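 active = replicate mean at 85% of control or lower, very high polarization wells dropped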;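 note: wells of about 15 µL received 100 nL stock; the first replicate is given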
# * = called active by the depositor; . = no result; ! = a repeat was not active.
(1) O=C1Cc2ccccc2C(=O)N1
(2) CC(C)Cc1cc(-c2nn3c(-c4ccc(F)cc4)nnc3s2)n[nH]1
(3) Cc1ccc(Nc2c(-c3ccccc3O)nc3cc(C)ccn23)cc1
(4) NC(=O)C[n+]1ccn2c(NC3CCCCC3)c(-c3ccccc3O)nc2c1
(5) CCOC(=O)C1=C(C)NC2=C(C(=O)C(C(=O)OCC)C(c3ccc(OC)cc3)C2)C1c1cccc(OC)c1 (stereo not drawn)
entry no.	1	2	3	4	5
HCMV NEC inh	100*	-22	-3	.	.
GIV Gai3 FP	.	103	103	-75*	103

(6) CCN1C(=O)/C(=C\c2ccc(C(C)C)cc2)SC1=S
(7) COc1ccc(C2=CC(c3cccc(OC)c3)n3ncc(C(=O)Nc4ccc(C)cc4)c3N2)cc1 (stereo not drawn)
(8) COc1ccc(C2C=C(c3ccc(C)cc3)Nc3c(C(=O)Nc4ccccc4)cnn32)cc1 (stereo not drawn)
(9) Nc1c(C(=O)c2ccc(F)cc2)oc2ccc(Cl)cc12
(10) O=C(CCCSc1ccccc1)Nc1ccc2c(c1)OCO2
entry no.	6	7	8	9	10
HCMV NEC inh	.	2	.	.	-3
GIV Gai3 FP	102	108	-67*	114	.

(11) CC(COc1ccccc1)N(CCCl)Cc1ccccc1 (stereo not drawn)
(12) CC(C)NCC(O)COc1ccccc1 (stereo not drawn)
(13) CC(C)c1ccc(N2C(=O)CSC23C(=O)N(CN2CCOCC2)c2ccccc23)cc1 (stereo not drawn)
(14) COC(=O)c1ccccc1NC(=O)c1cc2c(s1)-c1ccsc1CC2
(15) CCCS(=O)(=O)N1N=C(c2ccc(Cl)cc2)CC1c1ccco1 (stereo not drawn)
entry no.	11	12	13	14	15
HCMV NEC inh	89*!	25	.	4	-6
GIV Gai3 FP	99	104	107	105	182

(16) CCCS(=O)(=O)N1N=C(c2ccc(C)cc2)CC1c1ccco1 (stereo not drawn)
(17) COc1ccc(-c2cc(-c3ccccc3O)nc(NC(N)=S)n2)cc1
(18) NNc1nc(-c2ccccc2)cc(-c2ccccc2O)n1
(19) CN1C(=O)/C(=C/c2cn(Cc3ccccc3)c3ccccc23)c2ccccc21
(20) O=C(Cn1cc(/C=C2\C(=O)NC(=O)N(Cc3ccccc3)C2=O)c2ccccc21)NCc1ccco1
entry no.	16	17	18	19	20
HCMV NEC inh	-10	51*	.	.	0
GIV Gai3 FP	7.4*	.	103	104	-35*

(21) C=CCN1C(=O)NC(=O)/C(=C/c2ccccc2OCc2ccc(Cl)cc2)C1=O
(22) C=CCN1C(=O)NC(=O)/C(=C/c2cccc(OCc3ccccc3Cl)c2)C1=O
(23) C=CCN1C(=O)NC(=O)/C(=C/c2ccc(OCc3ccccc3F)c(OCC)c2)C1=O
(24) C=CCN1C(=O)NC(=O)/C(=C/c2ccc(OCc3ccc(Cl)cc3)c(OC)c2)C1=O
(25) C=CCN1C(=O)NC(=O)/C(=C\c2cn(Cc3ccccc3)c3ccccc23)C1=O
entry no.	21	22	23	24	25
HCMV NEC inh	82*	73*	-13	-27	.
GIV Gai3 FP	117	114	104	109	21*

(26) CN1C(=O)/C(=C/c2cn(CC(=O)NCc3ccco3)c3ccccc23)C(=O)NC1=S
(27) CC(C)Oc1ccc(Cc2ccc(NC3=NCCN3)cc2)cc1
(28) CC(CC1C(C#N)=C(N)SC(N)=C1C#N)c1ccccc1 (stereo not drawn)
(29) CC(c1ccccc1)C1C(C#N)=C(N)SC(N)=C1C#N (stereo not drawn)
(30) Cc1ccc(Cn2c(SCc3cccc(C)c3)nc3cccnc32)cc1
entry no.	26	27	28	29	30
HCMV NEC inh	5	-21	-8	-18	22*
GIV Gai3 FP	105	.	-74*	108	106

# Entries of single compounds, quoted from the list.
# Results for CC(C)Oc1ccc(Cc2ccc(NC3=NCCN3)cc2)cc1 = HCMV NEC inh = -21; GIV Gai3 FP = .
# Results for CN1C(=O)/C(=C/c2cn(CC(=O)NCc3ccco3)c3ccccc23)C(=O)NC1=S = HCMV NEC inh = 5; GIV Gai3 FP = 105

# Further results follow:
(31) Cc1cccc(CSc2nc3cccnc3n2Cc2ccccc2F)c1
(32) Cc1cc2nc3c(=O)[nH]c(=O)nc-3n(C(O)C(O)C(O)C(O)CO)c2cc1C (stereo not drawn)
(33) Cc1cc2nc3c(=O)[nH]c(=O)nc-3n(C[C@@H](O)[C@@H](O)[C@@H](O)COP(=O)(O)O)c2cc1C
(34) COc1cccc(NC(=O)CSc2nc3c(sc4ncccc43)c(=O)n2Cc2ccc(C)cc2)c1
(35) Cc1ccc(NC(=O)CSc2nc3c(oc4ccccc43)c(=O)n2Cc2ccc(F)cc2)c(C)c1
entry no.	31	32	33	34	35
HCMV NEC inh	-22	-132	-166	79*	.
GIV Gai3 FP	101	-74*	.	100	109

(36) COc1ccc(C)cc1NC(=O)CSc1nc2c(sc3ncccc32)c(=O)n1Cc1ccc(F)cc1
(37) CCN(CC)CCn1c(SCC(=O)Nc2cccc(OC)c2)nc2c(sc3ccccc32)c1=O
(38) CC1(C)CCC[C@@]2(C)[C@H]3CC(=O)O[C@]3(C)CC[C@@H]12
(39) COc1ccc(Nc2cc(C)nc(Nc3ccc(NC(=O)Cc4ccccc4)cc3)n2)cc1
(40) CN1CCc2c(sc(NC(=O)CN3C(=O)c4ccccc4C3=O)c2-c2nc3ccccc3s2)C1
entry no.	36	37	38	39	40
HCMV NEC inh	55*	.	-1	.	.
GIV Gai3 FP	102	103	.	105	124

(41) CN1CCc2c(sc(NC(=O)C3CC3)c2-c2nc3ccccc3s2)C1
(42) CC(=O)N1CCc2c(sc(NC(=O)CSc3ccc(C)cc3)c2-c2nc3ccccc3s2)C1
(43) CC(C)N1CCc2c(sc(NC(=O)C3CC3)c2-c2nc3ccccc3s2)C1
(44) Cc1noc(/C=C/c2ccc(S(=O)(=O)N3CCCC3)s2)c1NC(=O)C1CC1
(45) CCSc1nnc2c(n1)OC1(Nc3ccccc3-2)C(=O)Nc2ccc(Br)cc21 (stereo not drawn)
entry no.	41	42	43	44	45
HCMV NEC inh	.	.	.	.	6
GIV Gai3 FP	-3.2*	100	-3.2*	97	.
